Literature values in patent publication US5739106A, “Appetite regulating compositions” (priority 1995, dated 1998).

Target: T1, CCK receptor (Homo sapiens, UniProt P32239)
T1 construct: host or cells: cerebral cortex homogenates
T1 sequence (P32239 1-447): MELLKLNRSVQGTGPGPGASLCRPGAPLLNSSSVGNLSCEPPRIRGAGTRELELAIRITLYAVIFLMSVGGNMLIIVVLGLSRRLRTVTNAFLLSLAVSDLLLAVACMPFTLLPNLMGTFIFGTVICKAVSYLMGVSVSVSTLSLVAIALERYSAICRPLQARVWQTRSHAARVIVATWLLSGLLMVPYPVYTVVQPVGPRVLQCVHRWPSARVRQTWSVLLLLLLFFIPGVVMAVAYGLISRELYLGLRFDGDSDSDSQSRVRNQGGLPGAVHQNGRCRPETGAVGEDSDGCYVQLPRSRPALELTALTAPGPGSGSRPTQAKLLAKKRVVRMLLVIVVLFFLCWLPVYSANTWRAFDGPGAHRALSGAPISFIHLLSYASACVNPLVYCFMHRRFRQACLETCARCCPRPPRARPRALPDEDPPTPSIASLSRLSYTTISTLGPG
Details: homogenates from the cerebral cortex; cited from earlier work

## CCK-4
  concentration displacing CCK receptor binding relative to sulfated CCK-8: equimolar, 10-fold or 100-fold greater
